Molecular target: recombinant Water-Soluble Chlorophyll Protein (WSCP) from Lepidium virginicum with a C-terminal hexahistidyl tag (Lepidium virginicum) (UniProt O04797)
Experiment: SEC; WSCP reconstituted with Chl a; Superose 12 10/300 GL, 20 mM sodium phosphate pH 7.8, room temperature

stoichiometry N: 4
Substance: recombinant Water-Soluble Chlorophyll Protein (WSCP) from Lepidium virginicum with a C-terminal hexahistidyl tag (from UniProt O04797 27-206) (natural protein)

Source: publication PMC5548782
